# scFv variants of Ab-95 (light chain) against a SARS-CoV-2 spike peptide

Source: Engelhart et al. 2022 (doi:10.1038/s41597-022-01779-4), MIT Lincoln Laboratory and A-Alpha Bio; data file from the FLAb repository.

Target: peptide PDVDLGDISGINAS, taken from heptad repeat 2 (HR2) of SARS-CoV-2 spike.

The variants keep the heavy chain, the linker and the frameworks of Ab-95 (scFv order VH, three GGGGS repeats, VL).
VH: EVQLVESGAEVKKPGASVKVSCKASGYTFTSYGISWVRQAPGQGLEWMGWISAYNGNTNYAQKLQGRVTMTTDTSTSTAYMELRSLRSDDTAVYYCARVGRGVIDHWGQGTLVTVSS
VL: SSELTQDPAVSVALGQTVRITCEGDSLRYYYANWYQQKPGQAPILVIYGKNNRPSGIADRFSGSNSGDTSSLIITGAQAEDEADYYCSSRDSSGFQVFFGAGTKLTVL

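Phage display of a naive human antibody library on the peptide gave the parent. AAYL52 was designed without a model: most single CDR substitutions and a random sample of double and triple ones. In AlphaSeq, yeast of one mating type display the scFv and yeast of the other type display the target. Pairs that bind mate more often; barcode pairs of the diploids are counted by sequencing. Read counts were normalised to the haploid input and turned into Kd by a linear fit to BCL2-family pairs of known affinity, for each replicate. Mating was done three times.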

Changes read parent residue, position, new residue, counted from the first residue of the VL shown. Scale: log10 of Kd in nM, estimated from mating counts; low values are strong binders. Where no diploid with the target was found in that replicate, the entry reads "ND": below detection, most likely a poor binder, though not proof of it. As a blank, each scFv also met three strains without target: over library AAYL52, 28% of these pairings were detected, typically at 3.91 and seldom below 2.90. The control count says in how many pairings with the empty strains this scFv gave a signal, with their mean in brackets.

| changes | log10 Kd (nM) by replicate | control signals |
|---|---|---|
| E23G S26H L27I | 3.01 / 3.40 / 3.18 | 3/9 (4.03) |
| G24E S89G G94L | 3.66 / 3.36 / ND | 5/9 (3.89) |
| L27D N33I V97C | 4.77 / 3.78 / 3.78 | 3/9 (3.74) |
| S26T V97G F98V | ND / 2.38 / 2.40 | 3/9 (3.58) |
| G24W S89P Q96N | ND / ND / ND | 3/9 (3.82) |
| G24R D25F S55Q | 3.50 / 5.72 / ND | 4/9 (3.71) |
| N33Q N52V F98W | ND / 4.59 / ND | 3/9 (4.13) |
| G24E S26C N51R | 3.93 / 3.37 / ND | 0/9 |
| D25M Y30F | 0.88 / 0.65 / 0.34 | 1/9 (5.05) |
| N33G G94R | 3.49 / 4.57 / 4.42 | 4/9 (3.88) |
| Y29M N33Y D91H | 5.07 / ND / ND | 3/9 (4.38) |
| G49E F95T F98A | 3.07 / 2.88 / ND | 1/9 (2.66) |
| D25F G94K | 1.88 / 2.41 / 2.03 | 1/9 (3.29) |
| P54G S92A G94F | ND / ND / ND | 0/9 |
| E23N Q96L | 2.96 / 2.56 / 3.09 | 4/9 (4.24) |
| Y30Q N51R S93M | 4.81 / 3.76 / 2.83 | 2/9 (4.30) |
| P54K S92E G94C | 3.78 / ND / ND | 1/9 (3.73) |
| G24H S26H A32N | 1.67 / 1.42 / 1.12 | 4/9 (4.10) |
| G94Q F95I V97I | ND / ND / ND | 0/9 |
| R90Q V97M F98S | 2.39 / 2.82 / 1.59 | 2/9 (2.58) |
| K50E N51A P54R | 5.31 / 4.16 / ND | 1/9 (4.60) |
| R28Y N33L Q96S | ND / ND / ND | 2/9 (3.62) |
| D25C G49A F95R | ND / ND / ND | 2/9 (4.29) |
| S26C G49C R90T | ND / ND / ND | 1/9 (2.31) |
| Y29I Y30D S92T | 3.22 / 3.34 / 4.01 | 1/9 (5.03) |
| S55C S92E G94E | ND / ND / ND | 1/9 (3.39) |
| S55P S88G S93N | 5.57 / 4.52 / ND | 2/9 (4.45) |
| G24N Y31Q P54C | ND / ND / ND | 1/9 (2.79) |
| R90C S93W Q96R | 4.34 / 2.45 / 2.74 | 1/9 (2.93) |
| Y29Q Y30A G49D | 1.92 / 1.88 / 1.95 | 4/9 (4.21) |
| D25N K50T S92E | 2.48 / 2.02 / 2.14 | 1/9 (2.91) |
| N33D P54M S93E | 4.07 / 4.71 / ND | 2/9 (4.38) |
| E23F S55P S93E | ND / ND / 3.76 | 0/9 |
| G49C R53I S93L | 3.61 / ND / ND | 1/9 (4.15) |
| S26P L27A S92Q | ND / ND / ND | 1/9 (4.26) |

Excerpt, the first 4 entries:

changes,log10 Kd (nM) by replicate,control signals
E23G S26H L27I,3.01 / 3.40 / 3.18,3/9 (4.03)
G24E S89G G94L,3.66 / 3.36 / ND,5/9 (3.89)
L27D N33I V97C,4.77 / 3.78 / 3.78,3/9 (3.74)
S26T V97G F98V,ND / 2.38 / 2.40,3/9 (3.58)